Measured values from patent US20230026808A1, “COMPOUNDS, COMPOSITIONS, AND METHODS FOR TREATING ISCHEMIA-REPERFUSION INJURY AND/OR LUNG INJURY” (YALE UNIVERSITY, priority 2019, published 2023).
Read-outs that look alike come from different tables or passages of the source.

Structure (SMILES): Cc1ccc(Nc2nccc(N(C)c3ccc4c(C)n(C)nc4c3)n2)cc1S(N)(=O)=O [pazopanib, 5-((4-((2,3-dimethyl-2H-indazol-6-yl)(methyl)amino)pyrimidin-2-yl)amino)-2-methylbenzenesulfonamide]
- margin of safety (2-week monkey study vs 20 mg clinical starting dose): 11.2 fold
- margin of safety (monkey, 14 days, IV 20 minute infusion, clinical dose 20 mg/day or 0.29 mg/kg): 11.2X
